Results reported in publication PMC3429157.

Chains of the proteins cited; added tags and fusions are not shown. Residues count along the entry.
UniProt P54725, 315-361: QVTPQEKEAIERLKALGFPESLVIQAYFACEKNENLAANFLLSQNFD

Experiments:
[1] = target: hHR23a UBA2 (Homo sapiens) (UniProt P54725); assay: NMR
[2] = target: UBA2 domain of hHR23a (RAD23A) (UniProt P54725); assay: NMR 1H-15N HSQC chemical-shift perturbation titration; conditions: pH 4.5, 23°C, no added salt stated (50 mM NaOAc)

Substance | Kd [1] [µM] | Kd [2] [µM]
K48-linked diubiquitin (proximal Ub) (from UniProt P0CG47) | 1.4 | –
Ubiquitin (monoUb) not stated (presumably none) | – | 215 ± 35
